# Ab-14 light chain CDR variants: yeast mating affinities

All variants were tested on one target, the spike HR2 peptide PDVDLGDISGINAS (SARS-CoV-2).

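The parent was found by panning a naive human phage display library on the peptide. This is the validation round: designs drawn from the data on random variants, tested in the same kind of assay. Their group label is 14L_En_Gen (En: ensemble of fine-tuned language models; Gen: genetic algorithm). Affinity was read by AlphaSeq, a pooled yeast mating assay with surface-displayed partners. Pairs that bind mate more often; barcode pairs of the diploids are counted by sequencing. Read counts were normalised to the haploid input and turned into Kd by a linear fit to BCL2-family pairs of known affinity, for each replicate. There are six technical replicates.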

Each scFv is VH, a (GGGGS)3 linker, VL, as in the parent Ab-14, and differs from it in the CDRs of the light chain only.
VH: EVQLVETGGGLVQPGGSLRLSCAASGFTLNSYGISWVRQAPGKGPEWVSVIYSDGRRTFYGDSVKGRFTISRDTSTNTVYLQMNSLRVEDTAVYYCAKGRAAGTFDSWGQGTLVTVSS
VL: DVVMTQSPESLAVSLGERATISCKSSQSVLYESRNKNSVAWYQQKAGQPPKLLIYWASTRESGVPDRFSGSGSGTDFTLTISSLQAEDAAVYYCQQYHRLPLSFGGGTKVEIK

The parent's light chain CDRs are KSSQSVLYESRNKNSVA, WASTRES, QQYHRLPLS; each variant's own CDRs replace them letter for letter. Numbers give log10(Kd / nM), so 0 is 1 nM and 3 is 1 µM. Smaller is tighter. Averages over replicates are reported, and they cover detected replicates only. "n.d." means that the variant was in the library but no mating with the target was seen in that replicate; the authors take this as a sign of poor binding, and no number exists. The range of this assay differs from that of the first round, and the authors advise against merging the two. Nonspecific signal, from three strains lacking the peptide, appeared in 4% of pairings of all light chain designs, centred on 2.64 (5% of these signals below 1.59); values are not corrected for it. For each scFv, signals with the empty controls are counted beside the result, with their mean in brackets. The parent sequence was in this pool as ten entries: three were never detected, three once, and four in most replicates, with averages from 0.34 to 2.37. The authors' rule: three or more of the six replicates give a measured affinity, fewer mean a poor binder.

| # | CDR-L1 | CDR-L2 | CDR-L3 | log10 Kd (nM) by replicate | log10 Kd (nM), mean | signal with controls |
|---|---|---|---|---|---|---|
| 1 | KIGMTLNQLMRKKNNVA | DLVEREN | QQYFRLPLS | 0.65 0.68 0.82 1.25 0.65 0.50 | 0.76 | 0 of 18 |
| 2 | MMSQVRGSGTRQRNNVA | QTSTREP | QQYDRLPLI | 1.40 1.29 1.70 0.87 1.17 1.53 | 1.33 | 0 of 18 |
| 3 | KLVQFMNRGTHHTSNIA | DAQNRID | QQYARLPLF | 0.50 0.45 0.39 0.47 0.53 0.51 | 0.48 | 0 of 18 |
| 4 | TISQMTALFSQTINNVA | EVSTREN | QQYDRLPLI | 1.69 1.35 1.26 1.20 1.45 1.23 | 1.36 | 0 of 18 |
| 5 | IVTQLMLWGWHAKNSIA | EAQTRIN | QQYDRLPLF | n.d. n.d. n.d. n.d. n.d. n.d. | n.d. | 1 of 18 (2.78) |
| 6 | TISQMSTLFSQSINNVA | EVSTREQ | QQYDRLPLV | n.d. 2.53 1.10 0.53 3.25 1.30 | 1.74 | 0 of 18 |
| 7 | TISQLHNMGTFAINSVA | QASLRNE | QQYDRLPLT | 1.42 1.32 1.19 1.12 1.25 1.57 | 1.31 | 1 of 18 (2.75) |
| 8 | KLTMINGLEKVSKNNVA | EMETRER | QQYNRLPLS | 0.40 0.42 0.50 -0.11 0.50 0.29 | 0.34 | 0 of 18 |
| 9 | KITATMRFEQMKKNNIA | EVSMRTK | QQYFRLPLA | 1.77 1.77 2.27 2.43 1.27 1.43 | 1.83 | 0 of 18 |
| 10 | HITYGMQVMGRHMESIA | QAEERAK | QQYDRLPLA | 2.21 2.93 2.86 1.34 1.31 2.68 | 2.22 | 0 of 18 |
| 11 | MLSMVADYSQVSKNSVA | EMETREE | QQYDRLPLI | 2.10 n.d. n.d. n.d. 2.12 1.80 | 2.01 | 0 of 18 |
| 12 | KLSMVTGHMSMSRNNVA | EMVTREN | QQYDRLPLS | 1.17 0.76 0.36 0.34 0.55 0.92 | 0.69 | 2 of 18 (2.40) |
| 13 | MVTQMAMTGMMSKRSVA | NASTREE | QQYHRLPLI | 3.12 0.71 0.80 0.43 0.87 1.40 | 1.22 | 0 of 18 |
| 14 | MISQLYNMGTFAINSVA | QASLRNE | QQYDRLPLI | 1.77 1.39 1.04 1.44 1.13 2.34 | 1.52 | 0 of 18 |
| 15 | IVSQLMLWGLHAKNSIA | EAQTRLN | QQYDRLPLI | n.d. n.d. n.d. n.d. n.d. n.d. | n.d. | 0 of 18 |
| 16 | TISGVMQSMSHSKSNVA | EVSTRLD | QQYVRLPLA | 0.86 0.75 0.38 0.33 0.70 0.81 | 0.64 | 0 of 18 |
| 17 | IVSQLMLWGMHAKNSIA | EASARLN | QQYDRLPLF | 1.28 0.84 0.07 0.59 0.98 0.17 | 0.66 | 0 of 18 |
| 18 | IVSQLMLWGWHAKNSIA | EAQTRLN | QQYDRLPLF | n.d. n.d. n.d. n.d. n.d. n.d. | n.d. | 0 of 18 |
| 19 | MISEVMNTLTRHGNNVA | DLSERED | QQYFRLPLS | n.d. n.d. n.d. n.d. n.d. n.d. | n.d. | 0 of 18 |
| 20 | HMSMITLMGSKNRNSVA | QMTTREN | QQYDRLPLA | 1.77 n.d. 1.46 n.d. 3.48 2.26 | 2.24 | 0 of 18 |
| 21 | MISQVLNMLTKTGNNVA | DLAERED | QQYFRLPLS | 1.13 1.50 n.d. 1.63 n.d. n.d. | 1.42 | 1 of 18 (2.13) |
| 22 | KLSMTHEMEHVNRNSVA | ELVTRMR | QQYNRLPLS | 0.59 1.06 0.88 1.05 1.06 1.29 | 0.99 | 1 of 18 (1.34) |
| 23 | MISQLMNMGQFAINSVA | QASIRNE | QQYDRLPLE | 0.32 0.22 0.16 0.62 0.53 0.83 | 0.45 | 0 of 18 |
| 24 | KIGATLNTLYEAKNNVA | DLVEREN | QQYHRLPLS | 0.61 0.88 1.17 0.56 0.62 1.21 | 0.84 | 0 of 18 |
| 25 | TIGSTLMYGMRQRNNVA | EVSERLN | QQYDRLPLL | 0.63 0.71 0.76 0.88 0.61 0.86 | 0.74 | 1 of 18 (2.68) |
| 26 | MISQIYNMGQFAINSVA | QASTRNA | QQYDRLPLT | n.d. n.d. n.d. n.d. 2.35 n.d. | 2.35 | 1 of 18 (3.06) |
| 27 | MMSQVTGLGQRHRNNVA | QTSTREV | QQYDRLPLI | 0.94 0.64 0.61 0.64 0.72 1.18 | 0.79 | 0 of 18 |
| 28 | IVSQLMLWGYHHKNSIA | EAQTRLN | QQYDRLPLF | 2.47 4.06 2.42 2.14 3.37 n.d. | 2.89 | 1 of 18 (2.82) |
| 29 | KISQMQRVGSTHRNSIA | EEATRAK | QQYHRLPLQ | 1.04 1.20 1.19 1.64 1.47 0.92 | 1.25 | 2 of 18 (2.21) |
| 30 | KISQMQRVGSTHGNSIA | EEATRAK | QQYHRLPLF | 2.07 1.75 1.65 1.99 2.11 1.50 | 1.85 | 0 of 18 |
| 31 | MVTQMAMTGMKNKRSVA | NAEMREY | QQYHRLPLI | 1.24 n.d. n.d. n.d. n.d. 2.42 | 1.83 | 1 of 18 (1.98) |
| 32 | HMSTLTLMGQRHRNSVA | QMTTREN | QQYDRLPLS | n.d. n.d. n.d. 2.38 2.30 n.d. | 2.34 | 0 of 18 |

Values reported by Li et al. 2023, doi:10.1038/s41467-023-39022-2 (FLAb copy).